# System: Male adult Wistar rats
# Conditions: 30 mg/kg s.c. codeine with i.c.v. cyclodextrin; n=12
structure (smiles),measurement,value
COc1ccc2c3c1O[C@H]1[C@@H](O)C=C[C@H]4[C@@H](C2)N(C)CC[C@@]341 [codeine],0-120 min AUC of analgesia (mean+SEM),7748+1057 %MPE*min

# — PMC3687523 (Biochemical pharmacology, 2013)
